The values that follow are results of earlier work, collected in patent US12246011B2, “Radiation mitigator and method of use thereof” (Georgetown University, priority 2016, dated 2025).

This data set has as its target angiotensin II receptor type 1 (AT1) (Homo sapiens, UniProt P30556). The following applies: AT1 versus AT2; cited from earlier work.

Consider `CCCc1nc2c(C)cc(-c3nc4ccccc4n3C)cc2n1Cc1ccc(-c2ccccc2C(=O)O)cc1` [telmisartan, Telmisartan], for which the “binding affinity greater for AT1 than for AT2” value is given as 3000 times.
